Earlier results, collected in US7816398B2, “Fatty alcohol drug conjugates” (Luitpold Pharmaceuticals, Inc., priority 2001, dated 2010).
Like-named read-outs stand apart in the source and are kept apart here.

In the case of `CC(=O)O[C@H]1C(=O)[C@@]2(C)[C@H]([C@H](OC(=O)c3ccccc3)[C@]3(O)C[C@H](OC(=O)[C@H](O)[C@@H](NC(=O)c4ccccc4)c4ccccc4)C(C)=C1C3(C)C)[C@]1(OC(C)=O)CO[C@@H]1C[C@@H]2O` [paclitaxel], the MTD (in vivo) is listed as 225 mg/m^2 and the MTD (infusion in humans) is listed as 225 mg/m^2.
